This note sets out measurements from patent US9012606B2, “In vivo half life increased fusion protein or peptide maintained by sustained in vivo release, and method for increasng in vivo half-life using same” (Alteogen, Inc., priority 2009, dated 2015).

Series [1] is described as follows: In vivo activity: body weight change in pituitary gland-removed rats. To be noted: subcutaneous 18 μg per rat every day, day 7. Details: species or system Sprague-Dawley rats. The procedure:
Pituitary gland-removed Sprague-Dawley rats were used as experimental animals and divided into three groups of seven. To the hypophysectomyzed Sprague-Dawley rats, the human growth hormone/alpha-1 antitrypsin monovariant fusion [T109: α1AT(P357N)/hGH] prepared in Example 2 and human growth hormone (Eutropin, LG Life Sciences Ltd, Korea) were subcutaneously injected at doses of 18 μg and 5 μg per rat, respectively, every day. For a control, PBS was used. The rats were weighed every day after being injected.

Series [2] is described as follows: Pharmacokinetics of hGH and hGH/alpha-1 antitrypsin fusions (serum ELISA). It is filed as in vivo. The conditions noted are these: Sprague-Dawley rats, subcutaneous, 720 μg/kg. On the procedure:
An anti-human growth hormone monoclonal antibody (Medix Biochemica, Finland) was diluted to a concentration of 1-5 μg/mL in phosphate buffered saline (PBS) and the dilution was aliquoted in an amount of 100 μL/well onto a 96-well plate (Nunc, Denmark) and incubated at room temperature for 15-18 hrs. After the antibody remaining suspended was removed, PBS containing 1% bovine serum albumin was plated in an amount of 250 μL/well and incubated at room temperature for 2 hours. The plates were washed three times with wash buffer (0.05% Tween 20, PBS) and the solution was aspirated. Samples were diluted in PBS containing 1% bovine serum albumin and added to the 96-well plates before incubation at room temperature for 2 hrs. […] To each well was added 100 μL of 1 M sulfuric acid to terminate the reaction, followed by measuring absorbance at 450 nm on a VersaMax microplate reader (Molecular Device, U.S.A.). Values for each sample were calculated by regression analysis after a standard curve was plotted for a reference material.
Sprague-Dawley rats were used as experimental animals and three of them were administered with human growth hormone while five rats were assigned to each of the fusion-administered groups. […] Each sample was analyzed in the same manner as the enzyme immunoassay of Test Example 1.

Series [3] has as its target T1, human neutrophil elastase (Homo sapiens, UniProt P08246).
T1 sequence (P08246 30-267): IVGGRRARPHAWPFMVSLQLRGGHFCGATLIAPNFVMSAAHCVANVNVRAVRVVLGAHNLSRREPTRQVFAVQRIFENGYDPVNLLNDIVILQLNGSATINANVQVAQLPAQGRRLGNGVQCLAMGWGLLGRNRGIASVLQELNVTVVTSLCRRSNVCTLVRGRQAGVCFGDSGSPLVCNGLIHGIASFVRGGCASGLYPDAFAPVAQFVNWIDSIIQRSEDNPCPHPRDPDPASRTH
Kind of series: Inhibitory activity against human neutrophil elastase. Format: biochemical. The conditions noted are these: elastase and fusion 40 nM each, 1 hr room temperature. On the procedure: (§1) The human growth hormone/alpha-1 antitrypsin fusion [T109wt: α1AT/hGH] prepared in Example 1 and the human growth hormone/alpha-1 antitrypsin monovariant fusion [T109: α1AT(P357N)/hGH] prepared in Example 1 were separately mixed with human neutrophil elastase. The elastase and the fusions were used at a concentration of 40 nM, respectively. After being incubated at room temperature for 1 hr, the mixture was reacted with 1 mM of the substrate MeOSuc-AAPV-pNA (Santa Cruz Biotechnology, Inc., U.S.A.), followed by measuring absorbance at 405 nm. Human neutrophil elastase unit was set to be the concentration of substrate causing a change in absorbance of 0.001 and the enzyme activity was expressed as units/mg elastase.

In a further series the target is T2, trypsin (Bos taurus, UniProt P00760).
T2 construct: gene PRSS1
T2 sequence (P00760 24-246): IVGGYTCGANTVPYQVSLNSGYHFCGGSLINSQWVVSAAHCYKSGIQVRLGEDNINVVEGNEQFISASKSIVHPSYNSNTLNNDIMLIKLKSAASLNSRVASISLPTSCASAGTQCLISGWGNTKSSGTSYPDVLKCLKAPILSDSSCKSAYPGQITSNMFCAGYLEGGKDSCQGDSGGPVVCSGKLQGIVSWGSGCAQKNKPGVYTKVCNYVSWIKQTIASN
Kind of series: Inhibitory activity against trypsin. Format: biochemical. The conditions noted are these: trypsin and fusion 10 nM each, 1 hr room temperature. The procedure:
as §1, with “with trypsin. Trypsin” for “with human neutrophil elastase. The elastase”, “of 10” for “of 40”, “with 0.2” for “with 1”, “substrate N-Benzoyl-Val-Gly-Arg p-nitroanilide hydrochloride (Sigma,” for “substrate MeOSuc-AAPV-pNA (Santa Cruz Biotechnology, Inc.,”, “nm. Trypsin” for “nm. Human neutrophil elastase”, “units/mg trypsin. For comparison, trypsin was used as a control.” for “units/mg elastase.”

In series [4] the test system is rat lymphoma cell line (NB2 cell). Nature of the series: In vitro activity in NB2 cells (MTS method). Format: cell-based. The conditions noted are these: 48 hrs. On the procedure: The rat lymphoma cell line (NB2 cell) was maintained in RPMI1640 supplemented with 10% HS (Horse serum), 10% FBS, 2-mercaptoethanol and antibiotics at 37° C. under a 5% CO2 condition. For 24 hrs before experiment, NB2 cells were incubated in RPMI 1640 supplemented with 10% HS. Thereafter, the NB2 cells were washed once with 1×DPBS (Dulbecco's Phosphate Buffered Saline), and plated at a density of 2×10^4 cells/100 μL/well in 5% HS-supplemented RPMI 1640 in 96-well plates (Corning, U.S.A.) with final volume of 100 μL. A series of concentrations of the samples were added in an amount of 20 μL to each well of the 96-well plates, followed by incubation at 37° C. for 48 hrs under a 5% CO2 condition. Subsequently, 20 μL of an MTS solution (Promega, U.S.A.) was added to each well of the 96-well plates and allowed to react at 37° C. for 3 hrs under a 5% CO2 condition. The reaction was terminated by adding 20 μL of 10% SDS (sodium dodecyl sulfate) to each well. Absorbance was measured at 490 nm using a VersaMax microplate reader (Molecular Device, U.S.A.).

B1: human growth hormone/alpha-1 antitrypsin monovariant fusion (protein)
chain: EDPQGDAAQKTDTSHHDQDHPTFNKITPNLAEFAFSLYRQLAHQSNSTNIFFSPVSIATAFAMLSLGTKADTHDEILEGLNFNLTEIPEAQIHEGFQELLRTLNQPDSQLQLTTGNGLFLSEGLKLVDKFLEDVKKLYHSEAFTVNFGDTEEAKKQINDYVEKGTQGKIVDLVKELDRDTVFALVNYIFFKGKWERPFEVKDTEEEDFHVDQVTTVKVPMMKRLGMFNIQHCKKLSSWVLLMKYLGNATAIFFLPDEGKLQHLENELTHDIITKFLENEDRRSASLHLPKLSITGTYDLKSVLGQLGITKVFSNGADLSGVTEEAPLKLSKAVHKAVLTIDEKGTEAAGAMFLEAINMSIPPEVKFNKPFVFLMIDQNTKSPLFMGKVVNPTQKGGGGS[sequence of about 200 residues omitted]
modifications: T109 [alpha-1AT(P357N)/hGH]
notes: hGH fused to C-terminus of alpha-1 antitrypsin monovariant P357N
With B1, the weight gain in series [1] was ~9.4%. In series [2], the “serum half-life (t1/2)” value was 5.4 h and the “time to peak serum concentration (Tmax)” value amounted to 12 h. The “Ka with human neutrophil elastase” value in series [3] is “about 1.4×10^7 M^−1”. For the same molecule, the “Ka (association equilibrium constant) with trypsin” value with trypsin is recorded as “about 8.0×10^6 M^−1”. In series [4], this molecule returned an EC50 of 0.181 nM.
